Target: T1, Uridine 5'-monophosphate synthase (Homo sapiens, UniProt P11172)
T1 sequence (P11172 whole entry): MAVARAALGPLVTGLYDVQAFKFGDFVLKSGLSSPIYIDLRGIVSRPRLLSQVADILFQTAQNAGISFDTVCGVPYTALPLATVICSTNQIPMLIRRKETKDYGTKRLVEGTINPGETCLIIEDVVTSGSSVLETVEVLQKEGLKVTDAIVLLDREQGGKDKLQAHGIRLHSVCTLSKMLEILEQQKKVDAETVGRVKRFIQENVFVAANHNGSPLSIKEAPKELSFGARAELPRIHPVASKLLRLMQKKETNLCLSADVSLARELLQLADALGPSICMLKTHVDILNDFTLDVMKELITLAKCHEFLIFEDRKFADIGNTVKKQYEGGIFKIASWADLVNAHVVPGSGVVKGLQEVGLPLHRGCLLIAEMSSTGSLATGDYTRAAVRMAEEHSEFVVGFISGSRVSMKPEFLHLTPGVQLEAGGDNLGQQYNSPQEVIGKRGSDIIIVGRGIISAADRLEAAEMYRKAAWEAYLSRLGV
Test: Inhibition of human uridine 5'-monophosphate synthase after overnight incubation at room temperature by UV spectroscopy

NC(=O)c1[nH]nc([C@@H]2O[C@H](COP(=O)(O)O)[C@@H](O)[C@H]2O)c1O showed a Ki of 0.017 µM.
